Measured values: patent US9586965B2, “Pyrrolo[2,3-d]pyrimidine compounds as inhibitors of protein kinases” (ACEA BIOSCIENCES INC., priority 2012, dated 2017)

How the values were obtained:
[1] = system: HCC827 (L858R) human lung adenocarcinoma xenograft; settings: in vivo
Procedure: (§1) Each mouse was inoculated subcutaneously at the right flank with H1975 cells (5×10^6), HCC827 (5×10^6) and A431 (5×10^6) respectively in 0.2 ml of medium for tumor development. The treatments were started when the tumor size reached approximately 200-250 mm^3. The testing articles were administrated to the mice according to the predetermined regimen as shown in the experimental design table.
(§2) All the procedures related to animal handling, care and the treatment in this study were performed according to the guidelines approved by the Institutional Animal Care and Use Committee (IACUC) following the guidance of the Association for Assessment and Accreditation of Laboratory Animal Care (AAALAC). At the time of routine monitoring, the animals were checked for any effects of tumor growth and treatments on normal behavior such as mobility, food and water consumption (by observation), body weight gain/loss (body weights were measured twice weekly), eye/hair matting and any other abnormal effect. Death and observed clinical signs were recorded on the basis of the numbers of animals within each subset.
(§3) The major endpoint was to see if the tumor growth can be delayed or mice can be cured. […] Tumor weight was measured at the study termination. The T/C value (in percent) was calculated where T and C were the mean tumor weights of the treated and control groups, respectively.

[2] = system: NCI-H1975 (L858R/T790M) human non-small cell lung adenocarcinoma xenograft; settings: in vivo
Procedure: as §1, §2, §3

COc1cc2ncnc(Nc3ccc(F)c(Cl)c3)c2cc1OCCCN1CCOCC1 [Gefitinib]
Mouse Weight (g) at day 25(14) [1]: 23.70 ± 0.43 g | Mouse Weight (g) at day 23(14) [2]: 20.43 ± 0.71 g
